Source: patent publication US20100255006A1 (Takeda / Millennium, published 2010)

Target: T1, PYRIN-8 truncation mutant lacking the PYRIN domain (PYRIN-8ΔPYRIN, residues 89-1061 of SEQ ID NO:18) with a … (human, UniProt P59046 89-1061)
T1 construct: Expressed from pCI (Promega) in transfected cells
T1 sequence: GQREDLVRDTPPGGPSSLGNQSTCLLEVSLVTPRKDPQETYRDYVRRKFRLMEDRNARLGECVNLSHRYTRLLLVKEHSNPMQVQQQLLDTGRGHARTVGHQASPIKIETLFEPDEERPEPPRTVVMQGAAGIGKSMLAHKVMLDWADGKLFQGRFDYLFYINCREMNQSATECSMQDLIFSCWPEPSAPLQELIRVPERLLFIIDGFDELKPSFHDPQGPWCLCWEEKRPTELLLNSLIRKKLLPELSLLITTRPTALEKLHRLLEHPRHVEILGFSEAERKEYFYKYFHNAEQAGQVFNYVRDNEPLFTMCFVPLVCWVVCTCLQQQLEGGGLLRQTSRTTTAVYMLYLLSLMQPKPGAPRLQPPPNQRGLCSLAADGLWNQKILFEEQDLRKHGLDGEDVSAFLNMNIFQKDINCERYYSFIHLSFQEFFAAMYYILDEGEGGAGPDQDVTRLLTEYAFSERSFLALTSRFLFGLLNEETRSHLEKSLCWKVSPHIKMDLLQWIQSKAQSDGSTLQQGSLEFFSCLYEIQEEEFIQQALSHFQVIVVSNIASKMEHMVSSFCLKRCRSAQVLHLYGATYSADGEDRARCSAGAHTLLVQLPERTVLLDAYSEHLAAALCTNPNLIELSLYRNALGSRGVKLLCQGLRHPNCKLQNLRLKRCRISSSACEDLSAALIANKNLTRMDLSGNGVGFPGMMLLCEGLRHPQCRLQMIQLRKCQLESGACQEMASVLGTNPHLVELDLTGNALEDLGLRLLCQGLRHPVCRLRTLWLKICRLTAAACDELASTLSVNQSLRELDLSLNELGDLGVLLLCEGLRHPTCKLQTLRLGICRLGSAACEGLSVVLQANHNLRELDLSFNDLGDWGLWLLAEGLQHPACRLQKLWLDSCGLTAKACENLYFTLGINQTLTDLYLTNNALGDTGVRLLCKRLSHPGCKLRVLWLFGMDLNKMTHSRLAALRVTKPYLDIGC
Assay: co-localization by immunostaining in co-transfected 293T cells
Experimental: Cellular co-localization studies were carried out to determine whether PYRIN-8 interacts with CARD-5 (also known as ASC) when the two proteins were overexpressed in 293T embryonic kidney cells. Plasmids expressing either full-length PYRIN-8 (PYRIN-8-FL, residues 1-1061 of SEQ ID NO:18) or a PYRIN-8 truncation mutant lacking the PYRIN domain (PYRIN-8ΔPYRIN, residues 89-1061 of SEQ ID NO:18) with a C-terminal FLAG epitope were constructed using pCI (Promega). FLAG-tagged PYRIN-8 and HA-tagged CARD-5 were expressed in cells and detected using a mixture of anti-HA and anti-FLAG antibodies.
In immunostaining assays to detect cellular localization, 293T cells were transfected in poly-D-lysine-coated glass chamber slides (BioCoat, Becton-Dickinson Labware) with plasmids expressing HA-tagged CARD-5 and either FLAG-tagged PYRIN-8 or PYRIN-8ΔPYRIN using SuperFect transfection reagent (Qiagen). Cells were fixed 24 hours after transfection in 4% paraformaldehyde, permeabilized and blocked in a buffer containing 0.3% Triton X-100, and incubated with the following primary and secondary antibodies: rabbit anti-HA polyclonal Y-11 (Santa Cruz Biotechnology), mouse anti-FLAG monoclonal antibody M2 (Sigma), Alexa-350 goat anti-rabbit IgG (Molecular Probes), and Alexa-598 goat anti-mouse IgG (Molecular Probes). […]

binding result: no binding
B1: HA-tagged CARD-5 (other, UniProt Q9ULZ3 1-195, looked up, not shown: small tags and cut ends)
chain: MGRARDAILDALENLTAEELKKFKLKLLSVPLREGYGRIPRGALLSMDALDLTDKLVSFYLETYGAELTANVLRDMGLQEMAGQLQAATHQGSGAAPAGIQAPPQSAAKPGLHFIDQHRAALIARVTNVEWLLDALYGKVLTDEQYQAVRAEPTNPSKMRKLFSFTPAWNWTCKDLLLQALRESQSYLVEDLERS
notes: also called ASC; CARD-5 (ASC)
